The data set can be described thus: Solubility of HMTD in ionic liquids (content via 1H NMR). Particulars: sum of the two HMTD proton signals after normalization of an IL methyl group to 3.

SMILES strings stand for the structures. Several values for one entry are separate records, joined by “and”; a condition that tells them apart may be missing. Equal values may be shown once. This is a selection: effects in other tests are not listed, and their absence says nothing.

Turning to `CCCC[N+]1(C)CCCC1.O=S(=O)([O-])C(F)(F)F`, the “rel. HMTD integral” value turned out to be 0.17.
Under `CCn1cc[n+](C)c1.CS(=O)(=O)[O-]` stands 0.48; under `CCCC[n+]1cccc(C)c1.F[B-](F)(F)F`, 0.23 and 0.17; under `CCCCCC[n+]1ccccc1.F[B-](F)(F)F`, 0.04.
For the compound `CCCC[n+]1ccc(C)cc1.F[B-](F)(F)F`, the “rel. HMTD integral” value turned out to be 0.70.

(Values after patent publication US8765481B2, “Method for detecting peroxide explosives” (dated 2014).)
